Results published in paper PMC11279401, “Inhibitory Effect of Selected Guaianolide and Germacranolide Sesquiterpene Lactones on Nitric Oxide Production” (Molecules, 2024).
Entries after “also recorded” stand apart in the source; their conditions may differ.

Test system: mouse peritoneal cells
Assay: Cytotoxicity assay (WST-1), viability of mouse peritoneal cells
Type: cell-based
Settings: 10 µM compound, primary murine macrophages
Procedure: The tested compounds were dissolved in dimethyl sulfoxide (DMSO) to make stock solutions at a concentration of 50 mM, and then stored at −20 °C. Their biological activities were screened using a final concentration of 10 µM.
The animals were killed by cervical dislocation and injected intraperitoneally with 8 mL of sterile saline. Pooled peritoneal cells collected from the mice (n = 4–6 in individual experiments) were washed and re-suspended in a culture medium. The cell suspension was seeded onto 96-well round-bottom microplates (Costar, Corning, NY, USA). Final samples were supplemented to 100 µL volumes, containing 1–2 × 10^6 cells per well, depending on the assay. Cultures were maintained at 37 °C, 5% CO2 in a humidified incubator (Heraeus Holding GmbH, Hanau, Germany).
The viability of mouse peritoneal cells was determined using a colorimetric assay based on the cleavage of tetrazolium salt WST-1 by mitochondrial dehydrogenases in viable cells (Roche Diagnostics, Mannheim, Germany). The cells (1 × 10^6/mL) were cultured as described above. The viability of primary murine macrophages was tested in the presence of 10 µM of the respective test substance for […]. After the first 24 h of cultivation, WST-1 was added (10 µL), and the cells were kept in a Heraeus incubator at 37 °C for an additional 3 h. […] Optical density was evaluated at wavelengths of 450–690 nm.

Compound: C=C1C(=O)O[C@@H]2C[C@@H](C)[C@@H]3C=CC(=O)[C@@]3(C)[C@@H](O)[C@H]12 [Compound 15, helenalin]
- Cytotoxicity / effect on cell viability (in words): cytotoxic; also recorded: remarkable cytotoxicity
